The test addresses PIK3CB;PIK3CA (UniProt P42338). The test can be described thus: PI3-Kinase alpha/beta Inhibition.

Protein sequences, listed by entry. Tags and fused reporters are not part of them. Lines headed by an entry give the natural chain unless they say otherwise; changes in a name come on top.
UniProt P42338: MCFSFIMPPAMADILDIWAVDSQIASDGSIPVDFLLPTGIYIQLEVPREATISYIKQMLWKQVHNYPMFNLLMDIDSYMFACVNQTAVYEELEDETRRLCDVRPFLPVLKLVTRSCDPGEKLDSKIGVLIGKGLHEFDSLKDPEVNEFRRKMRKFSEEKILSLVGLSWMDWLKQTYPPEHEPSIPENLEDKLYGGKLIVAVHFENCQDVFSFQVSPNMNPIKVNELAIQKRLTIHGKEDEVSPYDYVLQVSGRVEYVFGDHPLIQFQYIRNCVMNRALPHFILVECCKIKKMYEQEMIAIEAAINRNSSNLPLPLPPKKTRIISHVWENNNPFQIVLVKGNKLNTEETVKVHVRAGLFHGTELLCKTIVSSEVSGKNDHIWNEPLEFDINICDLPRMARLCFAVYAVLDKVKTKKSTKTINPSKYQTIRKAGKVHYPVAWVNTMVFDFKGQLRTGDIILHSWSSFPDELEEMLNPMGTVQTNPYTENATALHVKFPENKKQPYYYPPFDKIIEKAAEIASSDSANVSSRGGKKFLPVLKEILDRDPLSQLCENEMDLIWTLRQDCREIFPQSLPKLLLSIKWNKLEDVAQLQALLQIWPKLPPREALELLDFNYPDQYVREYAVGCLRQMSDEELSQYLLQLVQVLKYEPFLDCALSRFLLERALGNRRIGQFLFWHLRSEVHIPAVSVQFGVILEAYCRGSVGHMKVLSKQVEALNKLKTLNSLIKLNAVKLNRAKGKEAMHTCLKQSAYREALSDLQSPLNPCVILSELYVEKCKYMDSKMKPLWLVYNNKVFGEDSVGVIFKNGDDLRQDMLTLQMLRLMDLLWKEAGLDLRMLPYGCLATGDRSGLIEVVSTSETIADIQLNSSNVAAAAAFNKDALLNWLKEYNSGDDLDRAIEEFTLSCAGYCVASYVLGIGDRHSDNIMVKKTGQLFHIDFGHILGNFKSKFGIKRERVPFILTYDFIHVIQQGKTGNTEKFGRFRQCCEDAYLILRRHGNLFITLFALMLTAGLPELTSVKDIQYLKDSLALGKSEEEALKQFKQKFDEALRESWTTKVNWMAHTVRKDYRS

Here are results for 1 molecule from the Kinase Knowledgebase extract (Sharma et al. 2016).

pIC50: −log10 of the molar value.

One may read the pIC50 as the IC50 on a negative log10 scale, so that one unit is a factor of ten. Consider `O=c1cc(N2CCOCC2)oc2c(-c3ccccc3)cccc12`, for which the pIC50 is 5.82 to 6.00.
